Experimental data from ChEMBL document CHEMBL1153453, “Schiff bases of 3-formylchromone as thymidine phosphorylase inhibitors” (Bioorg Med Chem, 2009).

By UniProt entry, the sequences of proteins in these tests, tags left out. Where a name states a change or a piece, a line headed by the entry shows the natural chain unless it says otherwise.
UniProt P07650: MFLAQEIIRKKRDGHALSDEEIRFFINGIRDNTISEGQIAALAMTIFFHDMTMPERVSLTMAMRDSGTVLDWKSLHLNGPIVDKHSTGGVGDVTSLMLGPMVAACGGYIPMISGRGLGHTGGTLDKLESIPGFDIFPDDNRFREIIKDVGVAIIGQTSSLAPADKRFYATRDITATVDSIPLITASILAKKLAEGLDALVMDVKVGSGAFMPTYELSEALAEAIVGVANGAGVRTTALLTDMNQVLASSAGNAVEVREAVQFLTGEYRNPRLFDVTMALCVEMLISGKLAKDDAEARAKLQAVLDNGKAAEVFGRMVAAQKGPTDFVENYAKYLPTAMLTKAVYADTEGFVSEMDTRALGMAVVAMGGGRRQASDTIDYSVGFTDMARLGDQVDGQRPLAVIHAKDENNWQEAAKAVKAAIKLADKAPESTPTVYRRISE

Molecular target: Thymidine phosphorylase (Escherichia coli K-12, UniProt P07650)
Test: Inhibition of Escherichia coli thymidine phosphorylase
Procedure, shortened: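 E. coli thymidine phosphorylase, 0.05 or 0.002 U, in potassium phosphate buffer pH 7.4, preincubated with test compound 10 min at 25 °C. A 290 nm pre-read was then taken, substrate added (1.5 mM stock), and absorbance at 290 nm read after 10, 20 and 30 min. Increasing compound concentrations were tested in triplicate. IC50 was calculated from the inhibition data.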

O=c1[nH]c(=O)c2cc[nH]c2[nH]1 [7-DEAZAXANTHINE]
IC50: 39.3 µM
